The chains behind the UniProt entries cited, without tags or fusion partners.
UniProt P81908, whole entry: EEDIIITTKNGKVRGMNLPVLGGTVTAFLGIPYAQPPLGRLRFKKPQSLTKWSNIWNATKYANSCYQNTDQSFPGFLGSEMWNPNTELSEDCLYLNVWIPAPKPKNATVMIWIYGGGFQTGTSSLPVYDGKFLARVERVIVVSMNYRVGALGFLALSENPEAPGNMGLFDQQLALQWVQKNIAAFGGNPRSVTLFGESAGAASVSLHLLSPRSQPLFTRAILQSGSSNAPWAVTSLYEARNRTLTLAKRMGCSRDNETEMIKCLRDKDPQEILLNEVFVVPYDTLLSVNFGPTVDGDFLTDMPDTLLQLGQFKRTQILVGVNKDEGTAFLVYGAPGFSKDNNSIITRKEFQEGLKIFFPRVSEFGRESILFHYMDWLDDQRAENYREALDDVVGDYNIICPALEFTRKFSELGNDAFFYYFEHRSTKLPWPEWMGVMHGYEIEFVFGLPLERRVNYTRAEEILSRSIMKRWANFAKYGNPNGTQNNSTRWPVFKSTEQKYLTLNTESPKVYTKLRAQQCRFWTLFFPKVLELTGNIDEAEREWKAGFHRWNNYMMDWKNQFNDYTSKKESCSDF

According to paper PMC6151429 (Molecules : A Journal of Synthetic Chemistry and Natural …, 2017):

Biological target: T1, horse serum butyrylcholinesterase (BChE) (Equus caballus, UniProt P81908)
T1 construct: horse serum butyrylcholinesterase (BChE, EC 3.1.1.8); purchased Sigma-Aldrich Co. (St. Louis, MO, USA); host or cells: horse serum
Assay: In vitro ChE enzyme assay (Ellman), BChE
Format: biochemical
Conditions: mean ± SEM of triplicate experiments
Text: Electric eel acetylcholinesterase (AChE, EC3.1.1.7), horse serum butyrylcholinesterase (BChE, EC 3.1.1.8), acetylthiocholine iodide (ACh), butyrylthioline chloride (BCh), 5,5′-dithobis [2-nitrobenzoic acid] […] The BACE1 FREF assay kit (β-secretase) was purchased from Pan Vera Co. (Madison, WI, USA). ONOO^− was purchased from Molecular Probes Cayman (Ann Arbor, MI, USA). All other chemicals and solvents used were purchased from E. Merck, Fluka, or Sigma- Aldrich, unless otherwise stated.
The inhibitory activity of the isolated coumarins toward ChE was measured using the spectrophotometric method developed by Ellman et al.. ACh and BCh were used as substrates to assay the inhibition of AChE and BChE, respectively. Each reaction mixture consisted of 140 µL sodium phosphate buffer (pH 8.0), 20 µL of test sample solution, and 20 µL of either AChE or BChE solution, which were then combined and incubated for 15 min at room temperature. […] Enzymatic hydrolysis, mediated by AChE or BChE, was monitored according to the formation of yellow 5-thio-2-nitrobenzoate anions at 412 nm for 15 min, which were generated by the reaction of DTNB with thiocholine released from ACh or BCh. All reactions were performed in 96-well plates in triplicate, and recorded using a microplate spectrophotometer (Molecular Devices, Sunnyvale, CA, USA).

With `O=c1ccc2ccc(O)cc2o1` [Compound 1, umbelliferone] the IC50 was 90.14 ± 0.02 µM.
